Results as given in PMC11124525, “Pharmacokinetic–Pharmacodynamic Correlation Analysis of Rhodiola crenulata in Rats with Myocardial Ischemia” (Pharmaceuticals, 2024).

Conditions: rat
Protocol: A series concentration mixed reference solution with different concentrations was added to 100 μL plasma, and was treated according to the method under Section 4.6 to obtain the matrix standard curve sample. Samples with concentrations of 400, 100, and 10 ng/mL, respectively, were taken as quality control (QC) samples of high, medium, and low concentrations (HQC, MQC, LQC). The method was validated, including linearity, inter-day/intra-day precision, repeatability, stability, extraction recovery, and matrix effect, according to FDA bioanalytical method validation guidelines.

In the case of `O=c1c(O)c(-c2ccc(O)cc2)oc2cc(O)cc(O)c12` [Kaempferol, kaempferol], the “Stability RE (%)” value (50 ng/mL) is reported as 93.25% and the “Stability RE (%)” value (10 days, 10 ng/mL) is reported as 97.80%.

Like-named read-outs stand apart in the source and are kept apart here.
